These results are taken from ChEMBL document CHEMBL1122516, “Structure-activity relationships for reactivators of organophosphorus-inhibited acetylcholinesterase: quaternary salts of 2-[(hydroxyimino)methyl]imidazole” (1984).

Series [1] can be described thus: Partition coefficient (logP). The conditions noted are these: octanol/water.
The nature of series [2]: Reactivation rate constant with respect to oxmiate concentration (1/OX (1/uM) =0.119).
Series [3] can be described thus: Biomolecular rate constant for reactivation and measure of the inherent reactivity of the oximate form of the reactivator at the concentration 30 uM [HOX] in the conditions of 25degreeC,pH 7.6. The conditions noted are these: pH 7.6, 30 µM.
Series [4] in a line: Effective biomolecular rate constant at the concentration 30 uM [HOX] in the conditions of 25degreeC,pH 7.6. Conditions: pH 7.6, 30 µM.
The nature of series [5]: Reactivation rate constant with respect to enzyme(AChE) inhibition.
The test system of series [6] is Anguilliformes. The experiment in a line: The compound was tested for % of maximum reactivation for GD-inhibited Eel AChE (Acetylcholinesterase) by oximes.
Series [7] is described as follows: Reactivation rate constant with respect to oxmiate concentration (1/OX (1/uM) =0.345).
Series [8] is described as follows: Biomolecular rate constant for reactivation and measure of the inherent reactivity of the oximate form of the reactivator at the concentration 10 uM [HOX] in the conditions of 25degreeC,pH 7.6. Conditions: pH 7.6, 10 µM.
Series [9] is described as follows: Effective biomolecular rate constant at the concentration 10 uM [HOX] in the conditions of 25degreeC,pH 7.6. The conditions noted are these: pH 7.6, 10 µM.
Series [10] can be described thus: Reactivation rate constant with respect to oxmiate concentration (1/OX (1/uM) =0.357).
Series [11] is described as follows: Reactivation rate constant with respect to oxmiate concentration (1/OX (1/uM) =0.318).
The species entered for series [12] is Homo sapiens. The experiment in a line: Concentration of the HOX that inhibits 50% of AChE (Acetylcholinesterase) activity.
The nature of series [13]: Reactivation rate constant with respect to oxmiate concentration (1/OX (1/uM) =0.313).
Series [14] in a line: Reactivation rate constant with respect to oxmiate concentration (1/OX (1/uM) =0.049).
Series [15] in a line: Reactivation rate constant with respect to oxmiate concentration (1/OX (1/uM) =0.382).
Series [16] can be described thus: pKa value of the compound.
Series [17] is described as follows: Reactivation rate constant with respect to oxmiate concentration (1/OX (1/uM) =0.125).
The nature of series [18]: Reactivation rate constant with respect to oxmiate concentration (1/OX (1/uM) =0.141).
Series [19] in a line: Reactivation rate constant with respect to oxmiate concentration (1/OX (1/uM) =0.115).

What is called logP is the decadic logarithm of the partition coefficient of the neutral form, usually between octanol and water. As usually defined, the IC50 is the point on the concentration scale where inhibition reaches its midpoint. Low values mean greater potency in that assay, high ones weaker potency in that assay. As usually defined, the pKa is the negative logarithm of the acid dissociation constant. Higher therefore signals a weaker acid or stronger base.

As for `CC(OC[n+]1ccn(C)c1/C=N/O)C(C)(C)C.[Cl-]` (stereo not given), the logP in series [1] was -0.68. The same compound had a kr in series [2] of 4720 min⁻¹. In [3], this compound registered a kOX of 0.00083 M⁻¹ min⁻¹. This compound also registered a kHOX in [4] of 0.00023 M⁻¹ min⁻¹. Further, in series [5], the Kr came to 5.66e+06 M.

In the case of `C[n+]1ccccc1/C=N/O.[Cl-]`, in series [6], the Rmax was determined as 23.3%. In series [7], the kr is 36000 min⁻¹. Also, the kOX in series [8] is 0.0096 M⁻¹ min⁻¹. In [9], the kHOX was determined as 0.0027 M⁻¹ min⁻¹. In series [5], this compound had a Kr of 3.74e+06 M.

For `CCCCCCCCOC[n+]1ccn(C)c1/C=N/O.[Cl-]`, the lipophilicity (logP) in [1] was found to be 0.88. Besides, the kr in series [10] stood at 3290 min⁻¹. In series [8], this compound gave a kOX of 0.0098 M⁻¹ min⁻¹. For the same compound, in series [9], the kHOX is 0.0028 M⁻¹ min⁻¹. Moreover, in series [5], the Kr was found to be 336000 M.

Take `Cn1cc[n+](COCc2ccccc2)c1/C=N/O.[Cl-]`: the logP in series [1] was -1.3. In series [11], this compound showed a kr of 29000 min⁻¹. The compound further came in with a kOX in [8] of 0.0082 M⁻¹ min⁻¹. Moreover, the kHOX in [9] was 0.0026 M⁻¹ min⁻¹. This compound gave a Kr in series [5] of 3.51e+06 M.

In series [12], `CC(OC[n+]1ccn(C)c1/C=N/O)C(C)(C)C` (stereo not given) came in with an IC50 of 16 µM.

`CCCCCCCCOC[n+]1ccn(C)c1/C=N/O`: half-maximal inhibition in series [12] (IC50) required 7 µM.

Consider `CC(C)OC[n+]1ccn(C)c1/C=N/O.[Cl-]`, for which the logP in series [1] is -3. This compound showed a kr in series [13] of 12100 min⁻¹. The same compound yielded a kOX in [8] of 0.0016 M⁻¹ min⁻¹. The kHOX in series [9] was 0.00052 M⁻¹ min⁻¹. This compound also showed a Kr in series [5] of 7.46e+06 M.

`CCCCOC[n+]1ccn(C)c1/C=N/O` displayed an IC50 in [12] of 20 µM.

Regarding `Cl.NC(=O)c1cc[n+](COCN2C=CC=CC2=CN=O)cc1.[Cl-]`, in series [3], the kOX stood at 0.00061 M⁻¹ min⁻¹. Moreover, in series [14], the kr was determined as 20600 min⁻¹. Moreover, the kHOX in series [4] was 0.00041 M⁻¹ min⁻¹. In [5], this compound gave a Kr of 3.38e+07 M.

For `Cn1cc[n+](COCCCc2ccccc2)c1/C=N/O.[Cl-]`, the logP in series [1] is -0.45. Further, the kr in series [15] amounted to 3290 min⁻¹. The pKa in series [16] worked out at 8.05. In [8], this compound gave a kOX of 0.0084 M⁻¹ min⁻¹. The kHOX in series [9] is 0.0022 M⁻¹ min⁻¹. This compound also registered a Kr in [5] of 391000 M.

As for `Cn1cc[n+](COCC(C)(C)C)c1/C=N/O.[Cl-]`, in [1], the logP was -0.91. Moreover, the kOX in series [3] was determined as 0.002 M⁻¹ min⁻¹. Besides, the kr in [17] amounted to 16800 min⁻¹. The compound also yielded a kHOX in [4] of 0.00054 M⁻¹ min⁻¹. This compound also had a Kr in series [5] of 8.32e+06 M.

On to `CCCCOC[n+]1ccn(C)c1/C=N/O.[Cl-]`, for which, in series [1], the logP was -1.39. The kOX in [3] is 0.0038 M⁻¹ min⁻¹. This compound returned a kr in series [17] of 7580 min⁻¹. The compound further returned a kHOX in series [4] of 0.001 M⁻¹ min⁻¹. In [5], the Kr is 1.99e+06 M.

On to `Cn1cc[n+](COCc2cccc3ccccc23)c1/C=N/O`, for which inhibition in [12] was half-maximal at 7 µM (IC50).

Compound `CC(C)OC[n+]1ccn(C)c1/C=N/O` had an IC50 in [12] of 80 µM.

As to `Cn1cc[n+](COCc2cccc3ccccc23)c1/C=N/O.[Cl-]`, the logP in series [1] is -0.36. Moreover, in [3], the kOX amounted to 0.0073 M⁻¹ min⁻¹. This compound also showed a kr in series [18] of 6100 min⁻¹. In [4], this compound had a kHOX of 0.0017 M⁻¹ min⁻¹. The Kr in series [5] is 835000 M.

On to `COC[n+]1ccn(C)c1/C=N/O.[Cl-]`, for which the logP in series [1] was -3. Moreover, the kr in [19] was determined as 59400 min⁻¹. In addition, the kOX in series [3] was 0.0076 M⁻¹ min⁻¹. This compound registered a pKa in series [16] of 7.96. The same compound registered a kHOX in series [4] of 0.0022 M⁻¹ min⁻¹. Moreover, the Kr in series [5] came out at 7.86e+06 M.

For the compound `NC(=O)c1cc[n+](COC[n+]2ccccc2/C=N/O)cc1.[Cl-].[Cl-]`, the Rmax in series [6] was found to be 48.7%.

As for `Cn1cc[n+](COCC(C)(C)C)c1/C=N/O`, 12 µM corresponded to half-maximal inhibition in series [12] (IC50). In other words, the double-digit micromolar range.

As to `Cn1cc[n+](COCc2ccccc2)c1/C=N/O`, the IC50 in series [12] was determined as 50 µM.

On to `Cn1cc[n+](COCCCc2ccccc2)c1/C=N/O`, for which half-maximal inhibition in series [12] (IC50) required 15 µM.
